According to ChEMBL document CHEMBL1131891, “Antiplatelet actions of aporphinoids from Formosan plants” (Bioorg Med Chem Lett, 1999):

Assays:
Oryctolagus cuniculus [1] = species: Oryctolagus cuniculus; experiment: Effect on platelet aggregation induced by adenosine 5'-diphosphate (ADP) in washed rabbit platelet
Oryctolagus cuniculus [2] = species: Oryctolagus cuniculus; experiment: Effect on platelet aggregation induced by arachidonic acid(AA) in washed rabbit platelet
Oryctolagus cuniculus [3] = species: Oryctolagus cuniculus; experiment: Effect on platelet aggregation induced by collagen in washed rabbit platelet; assay type: functional
Oryctolagus cuniculus [4] = species: Oryctolagus cuniculus; experiment: Effect on platelet aggregation induced by platelet activating factor(PAF) in washed rabbit platelet

`CN1CCc2cc3c(c4c2[C@@H]1Cc1ccc2c(c1-4)OCO2)OCO3.O=[N+]([O-])c1cc([N+](=O)[O-])c(O)c([N+](=O)[O-])c1` gave an Aggregation (Oryctolagus cuniculus [1]) of 90.2%, an Aggregation (Oryctolagus cuniculus [2]) of 77.3% and an Aggregation (Oryctolagus cuniculus [3]) of 0%. It also gave an Aggregation (Oryctolagus cuniculus [4]) of 74.6%.
